# PubChem BioAssay AID624173 (National Center for Advancing Translational Sciences (NCATS), 2012)
# The list shows a part of the results, in another mix than the full data. Calls of active or inactive are those of the source. Calls follow the shape of the dose curve; as a rule, active = well fitted inhibition curve with a large enough effect; inconclusive = small, poorly fitted or top-dose-only effect; inactive = flat fitted curve, though single readings scatter.
# Molecular target: pyruvate kinase (Trypanosoma brucei) (UniProt Q57TT1)
# Assay: qHTS of Trypanosoma Brucei Inhibitors; also: nearly all actives have a fitted effect of over 50% in size
# Details: TbPYK enzyme, Kinase-Glo Plus ATP luminescence, 45 min
# % is scaled to controls: 0 for no effect and ±100 for the full control effect.
Compound,"activity, negative = inhibition (at 76.8 µM (top of the series))","activity, negative = inhibition (at 157 µM (top of the series))"
CCC(=O)N(c1ccccc1)C1(COC)CCN(CCn2nnn(CC)c2=O)CC1,inactive: 5.49%,inactive: 0%
CCC(=O)N(c1ccccc1)C1(COC)CCN(CCc2cccs2)CC1,inactive: 0.552%,inactive: -12.2%
CN(CCCl)CCCl,inactive: 1.94%,
